Laboratory results: PubChem BioAssay AID1510 (The Scripps Research Institute Molecular Screening Center, 2009)
The list shows a part of the results, in another mix than the full data. The source made the active and inactive calls. Cut-off read from the data, not from the text of the source: active = inhibition above about 29%; inactive = the rest.

Sequences of proteins named here, by UniProt entry; tags and fusion partners are left off.
UniProt O95977, whole entry: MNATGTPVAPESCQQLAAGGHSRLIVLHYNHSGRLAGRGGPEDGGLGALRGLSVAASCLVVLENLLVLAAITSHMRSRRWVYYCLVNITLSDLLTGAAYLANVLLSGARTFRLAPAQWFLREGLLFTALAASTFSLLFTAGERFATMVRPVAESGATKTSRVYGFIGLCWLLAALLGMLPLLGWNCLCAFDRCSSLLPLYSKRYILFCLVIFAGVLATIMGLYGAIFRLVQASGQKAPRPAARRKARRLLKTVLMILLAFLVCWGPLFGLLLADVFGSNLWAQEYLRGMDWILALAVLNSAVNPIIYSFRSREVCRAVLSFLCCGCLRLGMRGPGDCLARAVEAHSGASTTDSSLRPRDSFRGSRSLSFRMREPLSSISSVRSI

The compounds below were run against Sphingosine 1-phosphate receptor 4 (Homo sapiens) (UniProt O95977) (assay: blockers of human S1P4 receptor – cell-based, primary screen (AID 1510;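 note: 0% = wells stimulated with agonist and 100% = vehicle wells without agonist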)). Conditions: S1P4-expressing cells, antagonist mode, reporter read-out; at 4.98 µM; stronger effect = higher value.
`Cc1c2non([O-])c-2c(C)[n+](=O)[n+]1[O-]` was tested, and the inhibition was inactive: 10.4%.
`CN(C(=O)Cc1ccc(Cl)c(Cl)c1)[C@@H]1CCCC[C@H]1N1CCCC1` was tested, and the inhibition was inactive: 16.2%.
